1 compound from BindingDB's records for doi:10.1021/acs.jmedchem.8b01298 (Astrazeneca, 2019) can be followed below.

Chains of the proteins cited; added tags and fusions are not shown. Lines headed by an entry give the natural chain unless they say otherwise; changes in a name come on top.
UniProt P27986, whole entry: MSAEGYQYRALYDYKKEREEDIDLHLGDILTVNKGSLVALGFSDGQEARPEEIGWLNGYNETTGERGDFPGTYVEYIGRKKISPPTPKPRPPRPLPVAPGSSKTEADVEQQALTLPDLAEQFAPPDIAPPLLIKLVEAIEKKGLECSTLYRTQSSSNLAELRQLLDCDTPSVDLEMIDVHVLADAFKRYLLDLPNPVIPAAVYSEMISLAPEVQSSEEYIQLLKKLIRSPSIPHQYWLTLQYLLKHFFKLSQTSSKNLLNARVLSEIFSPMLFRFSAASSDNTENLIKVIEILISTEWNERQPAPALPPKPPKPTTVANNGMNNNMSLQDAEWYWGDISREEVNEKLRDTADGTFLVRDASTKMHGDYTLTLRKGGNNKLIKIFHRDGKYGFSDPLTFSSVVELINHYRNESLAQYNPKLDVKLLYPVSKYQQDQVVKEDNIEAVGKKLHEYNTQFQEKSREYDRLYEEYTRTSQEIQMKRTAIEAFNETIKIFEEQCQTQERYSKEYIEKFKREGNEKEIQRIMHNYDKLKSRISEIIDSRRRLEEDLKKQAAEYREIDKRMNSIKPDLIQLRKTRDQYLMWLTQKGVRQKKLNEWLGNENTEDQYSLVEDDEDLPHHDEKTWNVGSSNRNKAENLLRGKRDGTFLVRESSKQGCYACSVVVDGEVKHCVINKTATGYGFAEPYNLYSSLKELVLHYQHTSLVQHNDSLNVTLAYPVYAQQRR
UniProt O00329: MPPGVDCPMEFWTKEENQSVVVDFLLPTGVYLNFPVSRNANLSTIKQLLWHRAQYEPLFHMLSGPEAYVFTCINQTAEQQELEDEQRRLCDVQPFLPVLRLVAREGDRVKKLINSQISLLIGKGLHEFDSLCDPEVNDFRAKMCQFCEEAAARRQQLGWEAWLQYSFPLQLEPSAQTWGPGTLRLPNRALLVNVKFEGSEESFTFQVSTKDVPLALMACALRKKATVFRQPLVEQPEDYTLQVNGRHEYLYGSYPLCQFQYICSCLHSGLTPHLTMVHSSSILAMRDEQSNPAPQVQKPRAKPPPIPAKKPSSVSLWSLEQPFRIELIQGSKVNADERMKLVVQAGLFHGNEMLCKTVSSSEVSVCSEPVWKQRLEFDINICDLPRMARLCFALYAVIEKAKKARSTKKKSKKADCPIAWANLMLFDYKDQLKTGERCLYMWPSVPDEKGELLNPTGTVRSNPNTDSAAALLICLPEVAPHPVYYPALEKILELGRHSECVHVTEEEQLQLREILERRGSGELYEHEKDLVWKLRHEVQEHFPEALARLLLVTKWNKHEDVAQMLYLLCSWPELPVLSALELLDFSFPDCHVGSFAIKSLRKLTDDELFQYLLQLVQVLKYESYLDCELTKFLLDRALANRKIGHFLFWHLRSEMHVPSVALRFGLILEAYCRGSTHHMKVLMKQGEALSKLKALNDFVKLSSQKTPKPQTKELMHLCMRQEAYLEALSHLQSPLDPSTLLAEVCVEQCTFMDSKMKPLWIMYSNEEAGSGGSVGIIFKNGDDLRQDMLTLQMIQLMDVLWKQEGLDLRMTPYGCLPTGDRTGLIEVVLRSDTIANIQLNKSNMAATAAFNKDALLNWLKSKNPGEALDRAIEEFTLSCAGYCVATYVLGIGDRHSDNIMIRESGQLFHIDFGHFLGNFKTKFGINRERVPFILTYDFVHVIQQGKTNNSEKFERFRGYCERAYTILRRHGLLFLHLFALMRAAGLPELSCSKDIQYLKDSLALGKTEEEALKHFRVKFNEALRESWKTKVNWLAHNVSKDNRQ

In the assay the target is Phosphatidylinositol 3-kinase regulatory subunit alpha/4,5-bisphosphate 3-kinase catalytic subunit delta isoform (Homo sapiens, UniProt P27986+O00329). Nature of the assay: Inhibition of N-terminal His6-tagged recombinant full length human p110delta/untagged recombinant full length human p85alpha expressed in baculovirus infected Sf21 insect cells after 80 mins by fluorescence polarization assay. In general terms: In fluorescence polarisation assays a small probe gives low polarisation when free and higher when bound to something large.

For orientation: IC50 means the midpoint of a concentration-inhibition curve. As for `C[C@H](Nc1ncnc(N)c1C#N)c1cc2ncc(Cl)n2nc1-c1ccccc1` [US10208066, Compound 4], the IC50 is 0.3 nM.
